## Ab-14 light chain CDR variants: yeast mating affinities

Reference: Engelhart et al. 2022, doi:10.1038/s41597-022-01779-4. File: FLAb, binding data.

All variants were tested on one target, the spike HR2 peptide PDVDLGDISGINAS (SARS-CoV-2).

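AAYL50 was designed without a model: most single CDR substitutions and a random sample of double and triple ones. The scFvs were displayed on barcoded MATa yeast, the peptide on MATalpha yeast. Pairs that bind mate more often; barcode pairs of the diploids are counted by sequencing. Scores were corrected for input abundance and mapped to Kd with protein pairs of known affinity run in the same pool. Mating was done three times.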

Each scFv is VH, a 15-residue (Gly4Ser)3 linker, VL, as in the parent Ab-14, and differs from it in the CDRs of the light chain only.
VH: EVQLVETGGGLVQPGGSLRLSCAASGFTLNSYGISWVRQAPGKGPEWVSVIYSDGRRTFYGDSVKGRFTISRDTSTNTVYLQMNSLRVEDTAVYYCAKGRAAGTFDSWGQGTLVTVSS
VL: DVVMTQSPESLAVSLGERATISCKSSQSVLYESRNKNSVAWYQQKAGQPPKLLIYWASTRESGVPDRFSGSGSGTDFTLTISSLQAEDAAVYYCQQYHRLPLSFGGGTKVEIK

Each variant is given by its three light chain CDRs, as the data file delimits them; those of the parent are KSSQSVLYESRNKNSVA, WASTRES, QQYHRLPLS. Scale: log10 of Kd in nM, estimated from mating counts; low values are strong binders. Averages over replicates are reported, and they cover detected replicates only. "ND" means that the variant was in the library but no mating with the target was seen in that replicate; the authors take this as a sign of poor binding, and no number exists. For reference, the parent read 0.65 as the reference entry and 1.68 as a member of this library. As a blank, each scFv also met three strains without target: over library AAYL50, 18% of these pairings were detected, typically at 4.19 and seldom below 2.99. Also given: how often the same scFv was detected with the empty control strains, with their mean in brackets.

| CDR-L1 | CDR-L2 | CDR-L3 | log10 Kd, replicates | mean log10 Kd (nM) | signal with controls |
|---|---|---|---|---|---|
| KSSQSVLYESRCKNSVA | WASTRES | QQYMRLPHS | ND 3.78 5.08 | 4.43 | 3 of 9 (4.82) |
| KSLQSVPYESRNKNSVA | WASSRES | QQYHRLPLS | 1.80 2.12 1.80 | 1.91 | 0 of 9 |
| KSSDSVLYESRNKNSVA | WKSTRES | QQYTRLPLS | 1.56 1.30 1.42 | 1.43 | 0 of 9 |
| KSSQSVLYESRNGNSVA | WASKRES | QQYDRLPLS | 0.90 1.05 0.99 | 0.98 | 5 of 9 (5.19) |
| KSSQSVLYESRNKNSVA | WASYRHS | QQYHRLPLC | 2.41 2.00 2.45 | 2.29 | 0 of 9 |
| KSSQSVLYESRNKNSVA | WASTDES | QEYHRLPLS | ND ND ND | ND | 0 of 9 |
| KSSQSVLYESRNKNSVA | WRSDREY | QQYHRLPLS | ND ND ND | ND | 0 of 9 |
| KSAQSVLYEDRCKNSVA | WASTRES | QQYHRLPLS | 0.68 0.79 1.32 | 0.93 | 0 of 9 |
| KSVQSVLYESRNDNSVA | WTSTRES | QQYHRLPLS | 1.44 1.66 1.67 | 1.59 | 1 of 9 (3.64) |
| KSRHSVLYESRNKNSVA | WASTRES | RQYHRLPLS | ND ND ND | ND | 2 of 9 (4.33) |
| KSSQSVLYESRNKPSVA | WASTRES | QQDHFLPLS | ND ND ND | ND | 1 of 9 (4.32) |
| WSSQSVLYESKNKNSVA | WASTRES | QQYHRLPLS | 1.50 1.61 1.72 | 1.61 | 2 of 9 (4.09) |
| KSSTSVLYESRNKNSMK | WASTRES | QQYHRLPLS | 6.07 ND 6.15 | 6.11 | 6 of 9 (4.37) |
| KTFQSVLLESRNKNSVA | WASTRES | QQYHRLPLS | 0.82 1.12 1.03 | 0.99 | 1 of 9 (4.24) |
| KSSQSVILESRNKNSVA | WASTSES | QQYHRLPLS | ND ND ND | ND | 0 of 9 |
| KSSQSVLYESRNKNSVA | WASTRES | QQWPRLPLS | 0.88 1.08 1.04 | 1.00 | 5 of 9 (4.40) |
| KSSQSVLWESRNKNSVA | WASTREA | QQYWRLPLS | 1.74 2.04 2.00 | 1.93 | 0 of 9 |
| KSSQSVLYESRNHNSVA | WASTRES | SQYHRLPLR | 4.07 ND ND | 4.07 | 3 of 9 (4.21) |
| KSSQEVLYESRNKNSVA | WASTRES | QNYHRLGLS | ND ND ND | ND | 4 of 9 (3.65) |
| KSSQSVLYESRKKNSVG | WASTRES | QQYGRLPLS | 3.91 ND 2.56 | 3.23 | 3 of 9 (3.95) |
| ISSQSVLYESREKNSVA | WASTRHS | QQYHRLPLS | 1.52 1.70 1.99 | 1.73 | 2 of 9 (3.42) |
| KDSNSVLYESRNDNSVA | WASTRES | QQYHRLPLS | 0.69 0.99 0.88 | 0.85 | 2 of 9 (4.00) |
| KSSQSVLYESRNKNSVA | WASTRES | QQVHNLPLS | ND ND ND | ND | 1 of 9 (2.48) |
| KSSQSVLYESRNKNSVS | WASTRQS | QQYHRLPLS | 3.87 ND 5.21 | 4.54 | 2 of 9 (3.75) |
| SSSQSVLYESRNKNSVA | CASTREH | QQYHRLPLS | 5.89 3.92 4.47 | 4.76 | 4 of 9 (3.87) |
| KNPQSVLYESRNGNSVA | WASTRES | QQYHRLPLS | 1.63 1.83 2.17 | 1.88 | 4 of 9 (4.43) |
| KSSQSVLYESRNKNSVA | WASERES | QQYHPEPLS | ND ND ND | ND | 2 of 9 (3.95) |
| KHSHSVLYESRNKNSVA | WAGTRES | QQYHRLPLS | 2.78 2.72 2.73 | 2.74 | 3 of 9 (4.32) |
| KASQSVLYHSRNKNSVA | WASTREE | QQYHRLPLS | 2.37 1.69 1.22 | 1.76 | 1 of 9 (2.92) |
| KSSQSVLYGSRNKNSVA | WESTVES | QQYHRLPLS | ND 4.44 5.12 | 4.78 | 7 of 9 (4.96) |
| KSSQSVKYESRNKNSVG | WASTRES | QQYHTLPLS | 5.95 ND 3.57 | 4.76 | 3 of 9 (4.06) |
| KSSQSVLYEERNKNSVA | WASTRES | QQYHRPPLS | ND 4.85 ND | 4.85 | 0 of 9 |
| KSSQSPLYESRNKNSYA | WWSTRES | QQYHRLPLS | ND ND ND | ND | 0 of 9 |
| KSSQSVLYESRNKNPQA | WASTRES | QQYHRLQLS | ND ND 5.22 | 5.22 | 0 of 9 |

From the list, the first 2 with no signal in any replicate:

CDR-L1	CDR-L2	CDR-L3	log10 Kd, replicates	mean log10 Kd (nM)	signal with controls
KSSQSVLYESRNKNSVA	WASTDES	QEYHRLPLS	ND ND ND	ND	0 of 9
KSSQSVLYESRNKNSVA	WRSDREY	QQYHRLPLS	ND ND ND	ND	0 of 9